scFv variants of Ab-14 (light chain) against a SARS-CoV-2 spike peptide

Source: Li et al. 2023 (doi:10.1038/s41467-023-39022-2), MIT Lincoln Laboratory and A-Alpha Bio; data file from the FLAb repository.

Antigen: PDVDLGDISGINAS, a 14-residue peptide of the SARS-CoV-2 spike HR2 region.

Parent: Ab-14, a human scFv built as VH, a (GGGGS)3 linker, VL. Only the CDRs of the light chain vary.
VH: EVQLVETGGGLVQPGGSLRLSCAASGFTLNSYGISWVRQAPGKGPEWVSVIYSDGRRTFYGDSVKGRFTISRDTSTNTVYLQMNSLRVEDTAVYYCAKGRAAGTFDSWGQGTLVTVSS
VL: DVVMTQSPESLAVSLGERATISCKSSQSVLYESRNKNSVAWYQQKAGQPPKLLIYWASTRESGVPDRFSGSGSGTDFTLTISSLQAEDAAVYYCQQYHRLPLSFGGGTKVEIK

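Phage display of a naive human antibody library on the peptide gave the parent. This is the validation round: designs drawn from the data on random variants, tested in the same kind of assay. Group labels follow the data file (Ctrl: baseline library sampled from a position-specific scoring matrix, with some repeated check sequences; En: ensemble of fine-tuned language models; GP: Gaussian process model; HC: hill climbing; Gen: genetic algorithm; Gibbs: Gibbs sampling; a sequence that several methods proposed may carry one label only). AlphaSeq pools MATa yeast showing the antibodies with MATalpha yeast showing the peptide. Pairs that bind mate more often; barcode pairs of the diploids are counted by sequencing. Read counts were normalised to the haploid input and turned into Kd by a linear fit to BCL2-family pairs of known affinity, for each replicate. Each pool was mated in six replicate cultures.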

The parent's light chain CDRs are KSSQSVLYESRNKNSVA, WASTRES, QQYHRLPLS; each variant's own CDRs replace them letter for letter. Values are log10 of the apparent Kd in nM; lower means stronger binding. Averages over replicates are reported, and they cover detected replicates only. An entry "nd" has no value in the source: the pair was not observed among the diploids in any replicate. This suggests poor binding but is not conclusive. The parent sequence was in this pool as ten entries: three were never detected, three once, and four in most replicates, with averages from 0.34 to 2.37. A sequence measured in both rounds can read differently, since the two assays cover different ranges. Three control strains display no target. For all light chain designs, 4% of the pairings with them gave a signal, with a median of 2.64 and one signal in twenty below 1.59, so weak values seen in few replicates may be background. In the paper, a design with two or fewer of six values counts as a poor binder.

CDR-L1	CDR-L2	CDR-L3	group	mean, log10 nM	detected
KSSQSVIYESRNKNSMA	AASTRES	QQCHRLPLS	Ctrl	2.26	1/6
KQQQSDEGMQRNKNSVA	EASTREM	QQYHRLPLS	GP_Gibbs	-0.03	6/6
MFSQLVYTGSRTRNAVA	QASTREN	QQYHHLPLS	En_HC	1.14	5/6
KLKQSVGYEERNKNSVA	GASQRES	QQYHRLPLS	GP_Gibbs	-0.39	6/6
NITGMVNGKGTTTKNIA	EAEFRAG	QQYSRLPLS	En_Gibbs	0.42	6/6
KVNQLMNIEQMNNKSVA	HTSTREN	QQYHRLPLS	En_HC	1.87	2/6
KISQSQLYESRNTKSVA	NASTRVS	QQYHRLPLS	GP_Gibbs	0.09	6/6
KISGSHLYESRNWNAVA	EASQREQ	QQYHRLPLS	GP_Gibbs	-0.01	6/6
KLEQSVLQESRNKNSVA	NASTRES	QQYHRLPLS	GP_Gen	-0.48	6/6
KVQQSHLYESRNKNSVA	NASTRCS	QQYHRLPLS	GP_Gen	0.32	6/6
KFQQSQLYESRNKNSVA	NASQRLS	QQYHRLPLS	GP_Gen	-0.16	6/6
HMSALTLQGMRHKNSVA	QMTTREN	QQYDHLPLS	En_Gen	0.40	6/6
KLSQSWLYESRNSNSVA	NASTRES	QQYHRLPLS	GP_Gen	0.06	6/6
HSSQSWLYESRNKNSVA	GGNTRES	QQYHRLPLS	GP_HC	0.04	6/6
KYSQSFLYESRNKNSVA	GASTRES	QNYHRLPLS	GP_HC	0.01	6/6
KCSQSVLYESRNKHSVA	WASTRNA	QQYHRLPLS	Ctrl	nd	0/6
KSSPSVLYESPNKNSVA	NASTRMS	QQYHRLPLS	GP_HC	-0.01	6/6
MMTMFPNEPTGDSSNIA	DTNQLNT	QQYQRLPLM	En_Gibbs	0.64	6/6
KLSQSWEYESRNKNSVA	NASTRLS	QQYHRLPLS	GP_Gen	-0.08	6/6
MMSQVSGQGTRHRNNVA	QTETREP	QQYDRLPLV	En_Gen	0.78	6/6
KVSQSVWYEQRNKNSVA	EASTRES	QQYHRLPLS	GP_Gen	1.21	6/6
KLRQQTLYESRNKNSVA	NADTREE	QQYHRLPLS	GP_HC	-0.31	6/6
MISQLGNMGQFAINSVA	QASLRND	QQYDRLPLM	En_Gen	0.68	6/6
KLDYLNHYSDIGGNSIA	DVSTAGM	QQYIRLPLS	En_Gibbs	0.35	6/6
KSSHSHLYESRNKNSVA	WASTRES	QQYHRLPPS	Ctrl	nd	0/6
HVEHDWLESNATMKAVA	NGATLAD	QQYGRLPLS	En_Gibbs	0.54	6/6
KSSPSVLYESQNKNSVA	MASTRES	QQYHRLPLS	Ctrl	1.70	6/6
KLSQSGLYGMRNKMSVA	QASQRLS	QQYHRLPLS	GP_Gibbs	0.79	6/6
KSSQSHLYESRNKNSVA	GASTRES	QAYHRLPLS	GP_HC	0.96	6/6
QLGMMLHELSKVTNSVA	EMTTRGN	QQYFRLPLS	En_Gen	0.27	6/6
KVSESELYESRNKNSVA	NASYRES	QQYHRLPLS	GP_Gibbs	0.15	6/6
MISDLTMYGSRNVNSVA	DLSMRGS	QQYDRLPLS	En_HC	0.92	6/6
KVSQSVLYEERNKNSVA	NGSTRES	QQYHRLPLS	GP_Gen	-0.41	6/6
KVSQSAWMESRNFNSVA	NASTREE	QQYHRLPLS	GP_Gibbs	0.35	6/6
KMSQSELYESRNKNSVA	NASTRMS	QQYHRLPLS	GP_Gen	1.01	6/6
KMSQEVDLESRNDNSVA	MASCRED	QQYHRLPLS	GP_Gibbs	0.51	6/6
KSSQSVLYESFPHNSVA	WASTRES	QQYPRLPLS	Ctrl	nd	0/6
KLQMSEMQESRWCNSVA	QASTREE	QQYHRLPLS	GP_Gibbs	0.42	6/6
KITQTMRFEQKASNNIA	EVTLRSK	QQYYRLPLS	En_Gen	0.92	6/6
SVTRYTDENGLKMNSVA	DAAEAMT	QQYHRLPLT	En_Gibbs	0.25	6/6
KSSISYLYESMNPNSVA	NGSTRES	QQYHRLPLS	GP_HC	-0.16	6/6
KCSQSVLYESRNWNSVA	WAHERES	QQYHRLPLS	Ctrl	1.91	5/6
MLTMFANEPAGKSSNIA	DTNQLTT	QQYQRLPFM	En_Gibbs	0.07	6/6
KMSQSVLYESRNKNSVA	WASTRCS	QQYHRLPLS	Ctrl	0.88	6/6
MISQLYNMGQFAINSVA	QANLRNE	QQYDRLPLA	En_Gen	1.91	1/6
KSLQSVLYESRNFNSVA	NASTRED	QQYHRLPLS	GP_HC	0.36	6/6
KSSYSVAYESRNKNSVA	WASTREE	QQYHRFPLS	Ctrl	2.27	5/6
KLPNSTLYESRQKNSVA	EASTRES	QQYHRLPLS	GP_HC	0.37	6/6
KVSSFMRGLMMRTDSIA	DNETRND	QQYDRLPLS	En_Gen	1.97	3/6
KSPQSVLDESRNKNSVA	WASTRES	QQYHRLPLS	Ctrl	0.95	4/6
TISQSVGMTSRNKNSVA	ENSTRED	QQYDRLPLS	En_HC	2.58	4/6
KVSQSELYESRNKNSVA	NASYRES	QQYHRLPLS	GP_Gen	0.18	6/6
RYQMDDNIGKGARNNVA	DGAEVRM	QQYARLPLL	En_Gibbs	0.45	6/6
KISQSWLYEPRNSNSVA	NASTRLR	QQYHRLPLS	GP_Gibbs	0.61	6/6
HISYSMSHLSRNKNSVA	NQQTRES	QQYHRLPLS	En_HC	nd	0/6
KSSQVVLYENRNKNSVA	GANTRES	QQYHRLPLS	Ctrl	0.19	6/6
KIGMTLNTLMHQKNNVA	DLVMREQ	QQYHRLPLS	En_Gen	1.06	6/6
TIAESMLYLSNLKNSIA	QAETRES	QQYHRLPIS	En_HC	0.64	6/6
IMTGIIEEGSNNKRNIA	ENKERFQ	QQYWQLPLS	En_Gibbs	0.87	6/6
KLSGSMEYQSRNKNNVA	NASQREQ	QSYHRLPLS	GP_Gibbs	0.19	6/6
KYSQSELYESRNKNSVA	NASQRES	QQYHRLPLS	GP_Gen	0.06	6/6
RFTEHLLMLENKIYAIA	NATKTME	QQYFRLPFA	En_Gibbs	0.77	6/6
KSSCSVLYESRNKNSVA	WASTRES	QQYHRLPLS	Ctrl	2.59	3/6
MISQMYNMGQFAINSVA	QASERNN	QQYDRLPLI	En_Gen	0.54	6/6
QLTHPSASWQANQASIA	DASLSLQ	QQYAQLPLM	En_Gibbs	1.38	4/6
KLSQSVLYESRNANSVA	NASTRES	QQYHRLPLS	GP_Gen	0.20	6/6
KLSQSMLYESRNKNNVA	SASTRES	QQYHRLPLS	GP_Gen	-0.49	6/6
KFSQSVLYETVNANSVA	HASTRES	CQYHRLPLS	Ctrl	1.62	2/6
TISQVMNILTRHGNNVA	DLEERED	QQYFRLPLS	En_Gen	0.41	6/6
KSSQSVEYESRNKNSVA	WASTRNS	QQYHRPPLS	Ctrl	2.29	2/6
KSQQQWEYGDRNKNSVA	NASQRED	QQYHRLPLS	GP_Gibbs	-0.33	6/6
KSSQSVLENSRNKNSVA	SASTRES	QQYHRLPLS	Ctrl	0.32	6/6
QIGMLLNFELQKINNVA	QMETRVK	QQYDRLPLS	En_Gen	0.95	6/6
MMAHQPESINQRMNNVA	NGAEAVE	QQYDRLPLI	En_Gibbs	0.90	6/6
KSQSSVFYESRNKNSVA	NASTRES	QQYHRLPLS	Ctrl	0.67	6/6
KVQQSWEYESRNSNNVA	MGSTRED	QQYHRLPLS	GP_Gibbs	0.12	6/6
KMSQSWLYESRNKNNVA	DASQRES	QQYHRLPLS	GP_Gen	-0.65	6/6

The closing 13 entries, repeated:

CDR-L1,CDR-L2,CDR-L3,group,"mean, log10 nM",detected
QLTHPSASWQANQASIA,DASLSLQ,QQYAQLPLM,En_Gibbs,1.38,4/6
KLSQSVLYESRNANSVA,NASTRES,QQYHRLPLS,GP_Gen,0.20,6/6
KLSQSMLYESRNKNNVA,SASTRES,QQYHRLPLS,GP_Gen,-0.49,6/6
KFSQSVLYETVNANSVA,HASTRES,CQYHRLPLS,Ctrl,1.62,2/6
TISQVMNILTRHGNNVA,DLEERED,QQYFRLPLS,En_Gen,0.41,6/6
KSSQSVEYESRNKNSVA,WASTRNS,QQYHRPPLS,Ctrl,2.29,2/6
KSQQQWEYGDRNKNSVA,NASQRED,QQYHRLPLS,GP_Gibbs,-0.33,6/6
KSSQSVLENSRNKNSVA,SASTRES,QQYHRLPLS,Ctrl,0.32,6/6
QIGMLLNFELQKINNVA,QMETRVK,QQYDRLPLS,En_Gen,0.95,6/6
MMAHQPESINQRMNNVA,NGAEAVE,QQYDRLPLI,En_Gibbs,0.90,6/6
KSQSSVFYESRNKNSVA,NASTRES,QQYHRLPLS,Ctrl,0.67,6/6
KVQQSWEYESRNSNNVA,MGSTRED,QQYHRLPLS,GP_Gibbs,0.12,6/6
KMSQSWLYESRNKNNVA,DASQRES,QQYHRLPLS,GP_Gen,-0.65,6/6